The other results are listed elsewhere or left out.
T1: LIN28A (human?, UniProt Q9H9Z2 1-209)
T1 sequence: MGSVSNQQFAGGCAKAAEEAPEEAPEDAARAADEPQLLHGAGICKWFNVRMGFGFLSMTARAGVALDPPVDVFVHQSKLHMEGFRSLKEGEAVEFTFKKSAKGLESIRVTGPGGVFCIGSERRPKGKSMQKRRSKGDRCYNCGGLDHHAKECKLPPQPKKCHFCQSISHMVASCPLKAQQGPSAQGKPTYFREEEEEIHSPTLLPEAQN

T2: CIRBP (Homo sapiens, UniProt Q14011 1-172)
T2 sequence: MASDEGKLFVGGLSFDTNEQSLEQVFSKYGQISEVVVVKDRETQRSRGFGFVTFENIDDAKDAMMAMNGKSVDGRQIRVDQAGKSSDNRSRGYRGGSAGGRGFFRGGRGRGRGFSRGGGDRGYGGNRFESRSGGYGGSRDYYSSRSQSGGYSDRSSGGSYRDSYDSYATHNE

T3: DHX36 (Homo sapiens, UniProt Q9H2U1 1-1008)
T3 sequence: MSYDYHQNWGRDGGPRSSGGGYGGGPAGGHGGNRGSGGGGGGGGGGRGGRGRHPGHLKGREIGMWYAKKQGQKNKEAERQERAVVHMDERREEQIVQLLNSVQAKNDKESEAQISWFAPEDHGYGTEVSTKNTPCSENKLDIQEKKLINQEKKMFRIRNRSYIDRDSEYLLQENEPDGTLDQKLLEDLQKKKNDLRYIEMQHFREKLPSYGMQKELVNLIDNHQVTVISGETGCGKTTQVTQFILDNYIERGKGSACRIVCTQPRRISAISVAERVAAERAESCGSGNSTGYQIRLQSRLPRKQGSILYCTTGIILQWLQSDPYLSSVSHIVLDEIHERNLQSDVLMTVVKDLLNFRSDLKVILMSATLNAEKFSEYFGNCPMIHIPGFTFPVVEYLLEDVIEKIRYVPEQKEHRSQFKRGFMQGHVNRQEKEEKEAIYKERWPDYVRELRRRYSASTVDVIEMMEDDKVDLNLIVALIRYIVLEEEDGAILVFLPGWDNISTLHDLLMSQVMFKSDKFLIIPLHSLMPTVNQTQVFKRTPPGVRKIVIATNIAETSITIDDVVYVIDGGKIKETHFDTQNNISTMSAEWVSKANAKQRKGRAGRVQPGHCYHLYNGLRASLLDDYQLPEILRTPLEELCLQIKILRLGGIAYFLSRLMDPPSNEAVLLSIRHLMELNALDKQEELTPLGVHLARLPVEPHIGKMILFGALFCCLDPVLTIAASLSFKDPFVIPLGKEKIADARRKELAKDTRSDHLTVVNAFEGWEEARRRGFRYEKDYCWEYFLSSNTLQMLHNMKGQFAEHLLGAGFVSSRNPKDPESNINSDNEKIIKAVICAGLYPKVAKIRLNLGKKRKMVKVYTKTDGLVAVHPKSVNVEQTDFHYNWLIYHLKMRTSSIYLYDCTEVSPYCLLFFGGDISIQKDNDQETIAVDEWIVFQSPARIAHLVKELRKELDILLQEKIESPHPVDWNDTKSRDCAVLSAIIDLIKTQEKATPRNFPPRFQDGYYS

B1: hsa-mir-6788 (structured_RNA)
RNA: GGGAAAGACAUCAGUUCGUCUGGGCCACGGUGUACGAAGUUUCAGCUGAAGAAGAGUAUUGAUUGUGCUGUUCGGCUGAAGCUUCGUGCAC
B2: hsa-mir-181a-2 (structured_RNA)
RNA: GGGAGCGCCUUCCACCCGAUGUUGUAUCGGUGUACGAAGUUUCAGCGAGUUUGGGAUUUGAAAAAACCGCUGAAGCUUCGUGCAC
B3: hsa-mir-5187 (structured_RNA)
RNA: GGGAAGAUUUGUAGAGGUGCCCGGACGGGGUGUACGAAGUUUCAGCAAGUGGAGCAGGAAUGCGCUUUUCUCCACUGGCUGAAGCUUCGUGCAC
B4: hsa-mir-944 (structured_RNA)
RNA: GGGACCACACCUGAGGCCGUUGAUUCUAGGUGUACGAAGUUUCAGCUUUUCUUAAAUUGUAUAAAGAGAAAUGCUGAAGCUUCGUGCAC
B5: hsa-mir-3139 (structured_RNA)
RNA: GGGAAUUAUGCGAAGGCAGCCGGCAAACGGUGUACGAAGUUUCAGCUGUUGACUGAAUAAUAAACAGCUGAAGCUUCGUGCAC
B6: hsa-mir-5191 (structured_RNA)
RNA: GGGAAUACUACAUAAGCUUGUGAGAGGCGGUGUACGAAGUUUCAGCUCCUCUCCUGGUCUGGGAGGAUAGAAGAGAGGAGCUGAAGCUUCGUGCAC
B7: NEAT1_ParasoR_ID8 (structured_RNA)
RNA: GGGAAUUGUGAUCGCAUAGGGAGCCCGAGGUGUACGAAGUUUCAGCUGCUUUCUUUAAUUGUUUUUUAAUAAUGUGGUAAGCAGCUGAAGCUUCGUGCAC
B8: PARIS_ID48 (structured_RNA)
RNA: GGGAACGACGGAUGACGUCUUGAUAUGUGGUGUACGAAGUUUCAGCUGUAUAUAUAUAUAUUUAAUUUCAAUGGCUUUUGGGGUACAAAUGGCUUUUGGUCAUAUAUAUGAGUUCUACAGCUGAAGCUUCGUGCAC
B9: hsa-mir-302b (structured_RNA)
RNA: GGGAAGCAAGGUUGAGGCACCACACAUCGGUGUACGAAGUUUCAGCCUUUCUGUGACUUUAAAAGUAAGGCUGAAGCUUCGUGCAC
B10: hsa-mir-4793 (structured_RNA)
RNA: GGGAAUGUUAGCGUGUAUACGGUCUGUCGGUGUACGAAGUUUCAGCCAGAGGGAGGCCAAGAAGACCUCUGGCUGAAGCUUCGUGCAC
B11: NEAT1_ParasoR_ID24 (structured_RNA)
RNA: GGGAAAUCGCCGUGCGAAGCUAAGCUUAGGUGUACGAAGUUUCAGCUGUGGGUUGUGUUUUCACUUUAUCGAUAAUGUCCUUAGACAUAUAAUAAAUUUGUAUUUUAAAAGUGACUUGAUUUGGCUGUGCAGCUGAAGCUUCGUGCAC
B12: hsa-mir-4740 (structured_RNA)
RNA: GGGAAACCACUAGCGAUACCGAAGAUGAGGUGUACGAAGUUUCAGCGGGCAGGGAGUCAGAGGGGACCGCCCGCUGAAGCUUCGUGCAC
B13: hsa-mir-6087 (structured_RNA)
RNA: GGGAAGAUGAUAGGCUCCACCCUGUAUCGGUGUACGAAGUUUCAGCGAGCCCUGAGGGGCUCGCUGAAGCUUCGUGCAC

What follows are binders tested against T1, LIN28A (assay: FOREST: bead pull-down of RNA structure library v1, barcode microarray; U1A/LIN28A: 20 mM HEPES pH 7.5, 80 mM KCl, 20 mM NaCl, 10% glycerol, 2 mM DTT, 0.1 ug/uL BSA, 4 C; BG4/CIRBP/DHX36: 10 mM Tris-HCl pH 7.5, 100 mM KCl (or LiCl),; high values mean tight binding).
B1 was tested, and the binding signal was 1.05 z-score. B2 showed a binding signal of 1.04 z-score. For B3, the binding signal was 1.03 z-score. With B4 the binding signal was 1.03 z-score. With B5 the binding signal was 1.03 z-score. B6 gave a binding signal of 1.03 z-score. B7 gave a binding signal of 1.02 z-score. B8 gave a binding signal of 1.02 z-score. In the case of B9, the binding signal is reported as 1.01 z-score. B10 showed a binding signal of 1.01 z-score. In the case of B11, the binding signal is reported as 1.01 z-score. With B12 the binding signal was 1 z-score. Work on B13 yielded a binding signal of 0.987 z-score.

The binders below were run against T2, CIRBP in the same assay as above.
In the case of B1, the binding signal is reported as 0.828 z-score. Binder B2 has a binding signal of -0.901 z-score. For B3, the binding signal was 0.946 z-score. With B4 the binding signal was -0.818 z-score. B5 showed a binding signal of 0.487 z-score. For B6, the binding signal was 0.256 z-score. B7 gave a binding signal of 0.299 z-score. For B8, the binding signal was -0.288 z-score. With B9 the binding signal was 0.381 z-score. B10 showed a binding signal of 1.05 z-score. Work on B11 yielded a binding signal of -1.63 z-score. In the case of B12, the binding signal is reported as 0.875 z-score. B13 was tested, and the binding signal was 1.65 z-score.

These binders were tested against T3, DHX36 in the same assay as above.
For B1, the binding signal was -0.469 z-score. B2 gave a binding signal of 0.0668 z-score. Binder B3 has a binding signal of -0.418 z-score. Work on B4 yielded a binding signal of -1.1 z-score. Work on B5 yielded a binding signal of -0.0807 z-score. With B6 the binding signal was 0.367 z-score. Work on B7 yielded a binding signal of 0.0292 z-score. For B8, the binding signal was 0.776 z-score. B9 gave a binding signal of 0.392 z-score. In the case of B10, the binding signal is reported as 0.34 z-score. B11 was tested, and the binding signal was -0.0615 z-score. B12 was tested, and the binding signal was 1.59 z-score. B13 gave a binding signal of 0.603 z-score.
